# From patent US11124550B2, “Proteinaceous molecules and methods of use” (priority 2015, dated 2021)
# Sequences of proteins named here, by UniProt entry; tags and fusion partners are left off.
# UniProt Q9Y5Y9, whole entry: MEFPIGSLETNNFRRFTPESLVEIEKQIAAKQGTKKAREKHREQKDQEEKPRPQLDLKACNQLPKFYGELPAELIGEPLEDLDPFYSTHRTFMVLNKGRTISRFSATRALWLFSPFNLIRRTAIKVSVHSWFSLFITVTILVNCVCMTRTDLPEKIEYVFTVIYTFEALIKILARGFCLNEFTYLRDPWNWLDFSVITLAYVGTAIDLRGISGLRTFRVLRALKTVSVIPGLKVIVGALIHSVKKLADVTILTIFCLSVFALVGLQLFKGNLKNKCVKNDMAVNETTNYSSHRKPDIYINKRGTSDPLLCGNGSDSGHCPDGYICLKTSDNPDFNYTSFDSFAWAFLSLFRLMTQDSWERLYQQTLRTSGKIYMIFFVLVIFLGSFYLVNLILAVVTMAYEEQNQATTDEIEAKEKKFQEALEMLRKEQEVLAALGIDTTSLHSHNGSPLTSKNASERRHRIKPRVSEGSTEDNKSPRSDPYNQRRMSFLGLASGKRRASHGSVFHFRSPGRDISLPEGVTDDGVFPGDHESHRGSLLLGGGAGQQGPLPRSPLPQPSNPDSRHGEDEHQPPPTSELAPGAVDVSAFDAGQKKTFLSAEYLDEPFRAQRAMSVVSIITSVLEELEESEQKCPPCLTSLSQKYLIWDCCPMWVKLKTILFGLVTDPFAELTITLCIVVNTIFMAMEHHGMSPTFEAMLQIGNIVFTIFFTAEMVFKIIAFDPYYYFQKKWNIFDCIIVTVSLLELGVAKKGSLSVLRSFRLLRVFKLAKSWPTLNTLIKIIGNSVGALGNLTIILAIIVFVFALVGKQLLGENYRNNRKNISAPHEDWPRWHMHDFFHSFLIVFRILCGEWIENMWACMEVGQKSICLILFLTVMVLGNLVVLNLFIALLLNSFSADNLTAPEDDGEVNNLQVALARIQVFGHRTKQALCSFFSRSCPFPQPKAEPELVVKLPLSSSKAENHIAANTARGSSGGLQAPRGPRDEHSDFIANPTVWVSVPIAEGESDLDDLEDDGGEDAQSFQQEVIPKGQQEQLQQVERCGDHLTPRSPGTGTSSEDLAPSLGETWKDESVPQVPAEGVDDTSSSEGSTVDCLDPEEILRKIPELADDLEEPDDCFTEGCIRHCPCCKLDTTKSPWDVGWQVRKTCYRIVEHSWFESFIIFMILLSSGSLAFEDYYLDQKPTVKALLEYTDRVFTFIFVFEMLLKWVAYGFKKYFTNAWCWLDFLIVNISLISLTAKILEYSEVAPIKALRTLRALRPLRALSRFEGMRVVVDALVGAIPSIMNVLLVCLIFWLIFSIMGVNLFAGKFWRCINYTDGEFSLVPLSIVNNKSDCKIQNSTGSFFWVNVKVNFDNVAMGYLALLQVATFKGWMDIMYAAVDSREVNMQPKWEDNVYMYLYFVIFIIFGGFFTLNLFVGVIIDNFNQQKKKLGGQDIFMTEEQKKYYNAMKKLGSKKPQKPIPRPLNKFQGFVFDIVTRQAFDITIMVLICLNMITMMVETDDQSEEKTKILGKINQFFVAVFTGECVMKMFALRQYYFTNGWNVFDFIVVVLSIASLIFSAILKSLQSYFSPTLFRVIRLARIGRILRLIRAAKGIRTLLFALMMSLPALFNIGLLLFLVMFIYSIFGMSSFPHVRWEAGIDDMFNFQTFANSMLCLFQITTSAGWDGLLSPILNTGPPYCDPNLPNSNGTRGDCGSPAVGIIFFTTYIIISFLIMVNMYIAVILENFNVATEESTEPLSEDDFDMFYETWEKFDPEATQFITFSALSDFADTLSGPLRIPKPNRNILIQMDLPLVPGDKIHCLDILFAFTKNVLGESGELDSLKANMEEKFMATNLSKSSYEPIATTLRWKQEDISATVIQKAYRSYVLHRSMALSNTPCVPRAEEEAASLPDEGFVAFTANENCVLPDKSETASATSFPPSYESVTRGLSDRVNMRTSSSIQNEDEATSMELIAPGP
# UniProt Q9UQD0, whole entry: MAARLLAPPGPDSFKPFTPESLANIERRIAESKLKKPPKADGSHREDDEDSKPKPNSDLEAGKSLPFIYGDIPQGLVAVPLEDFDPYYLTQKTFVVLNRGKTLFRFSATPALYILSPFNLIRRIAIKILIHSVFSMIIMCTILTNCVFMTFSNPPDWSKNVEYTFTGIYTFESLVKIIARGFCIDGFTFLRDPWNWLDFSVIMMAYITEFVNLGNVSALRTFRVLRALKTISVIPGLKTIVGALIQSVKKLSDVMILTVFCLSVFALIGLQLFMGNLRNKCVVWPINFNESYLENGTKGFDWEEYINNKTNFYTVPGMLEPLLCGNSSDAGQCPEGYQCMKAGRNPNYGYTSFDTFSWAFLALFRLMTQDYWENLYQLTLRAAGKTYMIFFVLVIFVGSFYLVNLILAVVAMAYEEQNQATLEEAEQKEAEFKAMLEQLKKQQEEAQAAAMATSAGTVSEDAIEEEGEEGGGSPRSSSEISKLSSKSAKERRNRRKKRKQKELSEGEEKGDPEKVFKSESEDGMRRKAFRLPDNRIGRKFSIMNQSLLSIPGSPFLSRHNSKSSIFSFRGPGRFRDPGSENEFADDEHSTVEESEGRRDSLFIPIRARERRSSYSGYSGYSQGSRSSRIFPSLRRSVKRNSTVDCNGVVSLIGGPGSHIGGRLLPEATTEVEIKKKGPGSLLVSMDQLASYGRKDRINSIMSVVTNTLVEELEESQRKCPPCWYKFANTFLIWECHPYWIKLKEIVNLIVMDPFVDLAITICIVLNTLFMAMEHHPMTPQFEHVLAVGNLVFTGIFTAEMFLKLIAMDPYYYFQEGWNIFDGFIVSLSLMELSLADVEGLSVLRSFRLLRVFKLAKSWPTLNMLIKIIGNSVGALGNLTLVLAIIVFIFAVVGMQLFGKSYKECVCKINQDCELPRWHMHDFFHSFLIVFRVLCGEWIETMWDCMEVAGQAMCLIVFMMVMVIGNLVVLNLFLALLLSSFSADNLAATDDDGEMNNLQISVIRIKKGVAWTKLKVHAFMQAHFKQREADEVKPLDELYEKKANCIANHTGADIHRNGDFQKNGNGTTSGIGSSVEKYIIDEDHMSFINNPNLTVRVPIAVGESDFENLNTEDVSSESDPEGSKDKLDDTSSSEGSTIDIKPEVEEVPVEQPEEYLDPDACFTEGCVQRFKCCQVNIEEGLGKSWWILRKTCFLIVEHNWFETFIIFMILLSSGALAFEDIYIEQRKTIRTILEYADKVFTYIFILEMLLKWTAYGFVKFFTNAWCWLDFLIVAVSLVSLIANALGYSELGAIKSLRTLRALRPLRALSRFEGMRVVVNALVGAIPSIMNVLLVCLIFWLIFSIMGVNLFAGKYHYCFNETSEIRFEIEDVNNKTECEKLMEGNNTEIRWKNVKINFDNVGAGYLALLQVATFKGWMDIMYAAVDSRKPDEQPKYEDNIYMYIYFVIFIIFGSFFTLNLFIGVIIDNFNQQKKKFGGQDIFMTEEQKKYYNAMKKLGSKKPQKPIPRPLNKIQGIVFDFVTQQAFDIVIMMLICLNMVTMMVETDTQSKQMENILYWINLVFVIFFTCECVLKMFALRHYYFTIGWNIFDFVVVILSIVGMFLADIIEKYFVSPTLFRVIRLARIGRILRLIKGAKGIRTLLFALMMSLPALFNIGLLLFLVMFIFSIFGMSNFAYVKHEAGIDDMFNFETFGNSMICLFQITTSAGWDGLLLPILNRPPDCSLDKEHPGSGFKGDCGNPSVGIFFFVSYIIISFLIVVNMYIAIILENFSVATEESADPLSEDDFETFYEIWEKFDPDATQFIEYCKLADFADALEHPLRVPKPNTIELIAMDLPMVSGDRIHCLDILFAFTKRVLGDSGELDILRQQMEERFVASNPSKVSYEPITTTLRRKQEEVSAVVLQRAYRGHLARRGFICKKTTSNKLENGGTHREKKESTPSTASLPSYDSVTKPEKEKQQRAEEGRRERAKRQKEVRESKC
# UniProt P35499, whole entry: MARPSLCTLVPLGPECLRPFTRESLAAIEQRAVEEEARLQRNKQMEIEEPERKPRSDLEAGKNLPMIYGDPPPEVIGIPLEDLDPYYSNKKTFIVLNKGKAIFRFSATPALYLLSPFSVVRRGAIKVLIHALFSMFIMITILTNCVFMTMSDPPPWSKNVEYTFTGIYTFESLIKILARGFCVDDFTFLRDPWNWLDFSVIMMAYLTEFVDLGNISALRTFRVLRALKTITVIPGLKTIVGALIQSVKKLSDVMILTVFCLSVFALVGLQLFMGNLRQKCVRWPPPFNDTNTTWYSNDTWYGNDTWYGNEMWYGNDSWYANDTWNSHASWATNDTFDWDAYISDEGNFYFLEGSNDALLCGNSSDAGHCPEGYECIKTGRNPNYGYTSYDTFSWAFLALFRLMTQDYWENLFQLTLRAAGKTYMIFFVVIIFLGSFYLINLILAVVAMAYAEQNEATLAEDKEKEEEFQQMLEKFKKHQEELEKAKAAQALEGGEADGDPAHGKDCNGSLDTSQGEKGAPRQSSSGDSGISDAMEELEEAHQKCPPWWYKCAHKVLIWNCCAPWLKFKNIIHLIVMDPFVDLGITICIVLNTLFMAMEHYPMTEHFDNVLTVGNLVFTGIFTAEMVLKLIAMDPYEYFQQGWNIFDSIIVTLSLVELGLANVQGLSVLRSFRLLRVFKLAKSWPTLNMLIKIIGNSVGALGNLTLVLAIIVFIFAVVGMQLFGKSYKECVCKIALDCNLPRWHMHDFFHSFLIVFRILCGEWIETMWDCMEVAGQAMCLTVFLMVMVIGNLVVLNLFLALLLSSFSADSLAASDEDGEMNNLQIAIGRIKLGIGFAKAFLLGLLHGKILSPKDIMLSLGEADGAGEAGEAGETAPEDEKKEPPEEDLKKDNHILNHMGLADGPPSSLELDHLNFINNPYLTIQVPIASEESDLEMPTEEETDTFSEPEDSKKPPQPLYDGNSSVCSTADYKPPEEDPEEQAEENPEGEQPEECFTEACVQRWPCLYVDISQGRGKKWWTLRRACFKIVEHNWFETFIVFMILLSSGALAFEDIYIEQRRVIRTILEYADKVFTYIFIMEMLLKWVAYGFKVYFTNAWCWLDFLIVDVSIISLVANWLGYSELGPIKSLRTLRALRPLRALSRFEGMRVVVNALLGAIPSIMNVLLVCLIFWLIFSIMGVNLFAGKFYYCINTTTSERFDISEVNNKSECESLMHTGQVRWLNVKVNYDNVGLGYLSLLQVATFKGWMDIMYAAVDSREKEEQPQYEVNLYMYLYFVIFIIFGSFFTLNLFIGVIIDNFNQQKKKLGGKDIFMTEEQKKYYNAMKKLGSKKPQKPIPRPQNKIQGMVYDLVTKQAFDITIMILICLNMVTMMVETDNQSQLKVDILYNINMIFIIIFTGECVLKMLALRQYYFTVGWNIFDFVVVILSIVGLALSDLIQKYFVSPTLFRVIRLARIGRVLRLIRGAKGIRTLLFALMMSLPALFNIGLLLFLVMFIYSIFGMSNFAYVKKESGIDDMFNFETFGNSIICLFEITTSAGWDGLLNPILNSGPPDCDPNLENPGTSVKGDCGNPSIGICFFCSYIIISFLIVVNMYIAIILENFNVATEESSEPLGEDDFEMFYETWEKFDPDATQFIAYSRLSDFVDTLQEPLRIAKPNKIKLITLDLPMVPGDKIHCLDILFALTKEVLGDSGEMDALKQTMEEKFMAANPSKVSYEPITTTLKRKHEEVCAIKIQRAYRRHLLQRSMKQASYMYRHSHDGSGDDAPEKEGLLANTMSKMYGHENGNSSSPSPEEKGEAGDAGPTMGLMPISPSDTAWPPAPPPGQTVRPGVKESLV
# Columns and labels:
# hNav1.8 = molecular target: T1, hNav1.8 (Homo sapiens, UniProt Q9Y5Y9); test: Automated planar whole-cell patch clamp (Patchliner), hSCN10A HEK293T cells; format: cell-based; conditions: concentrations tested up to 50 nM
# T1 construct: expressed in transfected cells; host or cells: HEK293T
# From the text: (§1) To characterize the functional activity of Hm1a and Hm1b, HEK293T cells stably transfected with either hSCN1A, hSCN2A, hSCN3A, hSCN5A, hSCN9A or hSCN10A as well as CHO cells stably transfected with hSCN4A or hSCN8A were used for whole-cell patch-clamp analysis with a high throughput automated planar patch-clamp technology.
# (§2) HEK293T cells stably transfected with either hSCN1A, hSCN2A, hSCN3A, hSCN5A, hSCN9A or hSCN10A were maintained in Dulbecco's Modified Eagle's Medium Nutrient Mixture F-12 (Invitrogen, Carlsbad, Calif., USA) supplemented with 10% (v/v) foetal bovine serum (FBS) (Invitrogen), 0.9% Penicillin/Streptomycin (P/S) solution and 100 μg/mL hygromycin or 100 μg/mL neomycin. CHO cells stably transfected with hSCN4A or hSCN8A were maintained in Ham's F12 Nutrient Mixture (Invitrogen, Carlsbad, Calif., USA) supplemented with 10% (v/v) FBS, 0.9% P/S solution and 100 μg/mL hygromycin. All cells were grown in T75 flasks (BD Biosciences, San Jose, Calif., USA) to ˜70% confluency.
# (§3) Patch-clamp recordings were conducted in the whole-cell configuration using a Patchliner® (Nanion Technologies, Munich, Germany). […]
# hNav1.6 = molecular target: T2, hNav1.6 (Homo sapiens, UniProt Q9UQD0); test: Automated planar whole-cell patch clamp (Patchliner), hSCN8A CHO cells; format: cell-based; conditions: concentrations tested up to 50 nM
# T2 construct: expressed in transfected cells; host or cells: CHO
# From the text: as §1, §2, §3
# Dravet syndrome mice = test: Long-term ICV infusion, seizure frequency and mortality; format: in vivo, mouse
# Experimental: To determine the long-term efficacy of synthetic Hm1a (Example 1), 24 hours after ICV guide cannula surgery performed as per Example 5, a cohort of Dravet syndrome mice were administered Hm1a (0.5 μM in 0.1% bovine serum albumin in sterile saline) or vehicle (0.1% bovine serum albumin in sterile saline) continuously at a rate of 0.2 L/minute for up to five days using syringe and driver as previously described in Example 5 (n=4). Seizure frequency was measured using continuous video recordings of unrestrained animals from P18 to P23.
# Hm1a was infused during the critical window from P19 to P23, when the highest rate of ictal events and mortality occurs in the Dravet syndrome model (Yamakawa (2011) Epilepsia, 52(s2): 70-71). Seizures were abolished following Hm1a administration and these animals remained seizure free for the duration of the experiment (FIG. 16a, left panel), in comparison to control animals which experienced ongoing seizures (FIG. 16a, right panel). Moreover, control animals treated with vehicle only all died within 26 hours, whereas there was no mortality in the cohort of animals treated with Hm1a (FIG. 16b).
# hNav1.1 = molecular target: T3, hNav1.1 (Homo sapiens, UniProt P35498); test: Automated planar whole-cell patch clamp (Patchliner), hSCN1A HEK293T cells; format: cell-based; conditions: for Time constant of fast inactivation, K: vehicle 0.08 ± 0.01; for Time constant of fast inactivation, Plateau: vehicle 0.25 ± 0.07; for Time constant of fast inactivation, Span: vehicle 1.0 ± 0.2; for Voltage-dependence of inactivation Slope: vehicle 9.7 ± 0.3; for Voltage-dependence of activation Slope: vehicle 10.0 ± 0.7; for Voltage-dependence of activation V1/2: vehicle −2.6 ± 0.2; for Voltage-dependence of inactivation V1/2: vehicle −28.8 ± 1.4
# T3 construct: expressed in transfected cells; host or cells: HEK293T
# From the text: as §1, §2
# Patch-clamp recordings were conducted in the whole-cell configuration using a Patchliner® (Nanion Technologies, Munich, Germany). Before recordings, cells were detached from culture flasks with Accutase Cell Detachment Solution (Innovative Cell Technologies Inc., San Diego, Calif., USA) and resuspended at a density of 1×10^6 to 5×10^7 per milliliter in 50% serum free media and 50% external recording solution v/v. The external recording solution comprised: 140 mM NaCl, 4 mM KCl, 1 mM MgCl2, 2 mM CaCl2), 5 mM D-glucose, 10 mM HEPES (pH adjusted to 7.4 with NaOH). The osmolarity of this solution was 298 mOsm. The internal recording solution comprised: 50 mM CsCl, 10 mM NaCl, 60 mM CsF, 2 mM MgCl2, 20 mM EGTA, 10 mM HEPES (pH adjusted to 7.2 with CsOH) and the osmolarity of this solution was 285 mOsm. Solutions were filtered using a 0.2 jm membrane filter (Minisart; Sartorius Stedim Biotech, Goettingen, Germany). Cells were kept in suspension by gentle automatic pipetting. Test peptide was dissolved in H2O with 0.1% fatty-acid free BSA (fafBSA) (Sigma-Aldrich, Castle Hill, NSW). Medium single-hole planar NPC-16 chips with an average resistance of ˜2.5 MΩ were used. Pipette and whole cell capacitance were fully compensated and the series resistance compensation was set to 50%. Recordings were acquired at 50 kHz with the low pass filter set to 3 kHz in PATCHMASTER (HEKA Instruments Inc., NY, USA) and performed at 27° C. When data needed further filtering for the analysis of sustained current, recordings were additionally filtered at 500 Hz offline using a Gaussian filter algorithm. Offline analysis was performed using Microsoft Excel, MatLab and GraphPad Prism 6 (Molecular Devices). Data are shown as means±S.E.M. Leak subtraction was performed in software before the currents were normalised. Statistical analysis was performed using Student's t-test and differences were considered significant when p<0.05.
# The voltage dependence of activation was studied by measuring the normalised peak currents during 100 ms depolarisations from −120 mV to +30 mV in 5 mV increments. The resulting current-voltage curve was fit to the equation I=[I+exp(−0.03937.z.(V−V1/2)]/g.(V−Vr), where I is current amplitude; z is apparent gating charge; V is test potential; V1/2 is half maximal voltage; g is a factor related to the maximum number of open channels; and Vr is reversal potential. Conductance was determined using G=I/(V−Vr), where G is conductance. The conductance values were then fit with the Boltzmann equation G=1/(1+exp[(V−V1/2)/a]), where a is the slope of the half-maximum, V is the potential of the given pulse and V1/2 is the potential for the half-maximal activation. To study steady-state fast inactivation, cells were held at conditioning pre-pulse potentials ranging from −120 mV to +30 mV in 5 mV increments from a holding potential of −120 mV and a test pulse at 0 mV for 20 ms. […]
# hNav1.4 = molecular target: T4, hNav1.4 (Homo sapiens, UniProt P35499); test: Automated planar whole-cell patch clamp (Patchliner), hSCN4A CHO cells; format: cell-based; conditions: concentrations tested up to 50 nM
# T4 construct: expressed in transfected cells; host or cells: CHO
# From the text: as §1, §2, §3
smiles,measurement,setting,value
CC(C)C[C@@H]1NC(=O)[C@H](Cc2ccc(O)cc2)NC(=O)[C@H](CCCNC(=N)N)NC(=O)[C@@H](NC(=O)[C@@H](N)CCC(=O)O)CSSC[C@@H]2NC(=O)[C@@H]3CSSC[C@@H](C(=O)N[C@@H](C)C(=O)N[C@@H](Cc4c[nH]c5ccccc45)C(=O)N[C@@H](CC(=O)O)C(=O)NCC(=O)N[C@H](C(=O)N[C@@H](Cc4ccccc4)C(=O)N[C@@H](CO)C(=O)O)[C@@H](C)O)NC(=O)[C@H](Cc4ccc(O)cc4)NC(=O)[C@H](CCCCN)NC(=O)[C@H](Cc4c[nH]c5ccccc45)NC(=O)[C@H](CC(=O)O)NC(=O)[C@H](CO)NC(=O)[C@H](CCCNC(=N)N)NC(=O)[C@H](CSSC[C@H](NC(=O)CNC(=O)CNC(=O)[C@H](Cc4ccccc4)NC1=O)C(=O)N[C@@H](CO)C(=O)N[C@@H](CO)C(=O)N[C@@H]([C@@H](C)O)C(=O)N[C@@H](CO)C(=O)N[C@@H](CC(=O)O)C(=O)N3)NC(=O)[C@H](CO)NC(=O)[C@H](CC(C)C)NC(=O)[C@H](Cc1c[nH]cn1)NC(=O)[C@H](CCCCN)NC2=O [Hm1a],effect on hNav1.8 current,hNav1.8,no effect
same,effect on hNav1.6 current,hNav1.6,no effect
same,seizures,"Dravet syndrome mice; continuous ICV infusion of Hm1a 0.5 μM, P19 to P23, n=4",abolished
same,mortality,"Dravet syndrome mice; continuous ICV infusion, vehicle controls all died within 26 hours",no mortality
same,voltage-dependence of fast inactivation of hNav1.1,hNav1.1,does not alter
same,voltage-dependence of steady-state activation of hNav1.1,hNav1.1,hyperpolarizing shift
same,"Time constant of fast inactivation, K",hNav1.1; 1 nM,0.11 ± 0.02
same,"Time constant of fast inactivation, Plateau",hNav1.1; 1 nM,0.30 ± 0.02
same,"Time constant of fast inactivation, Span",hNav1.1; 1 nM,1.2 ± 0.3
same,Voltage-dependence of inactivation Slope,hNav1.1; 1 nM,9.0 ± 0.2
same,Voltage-dependence of activation Slope,hNav1.1; 1 nM,10.6 ± 0.9
same,Voltage-dependence of activation V1/2,hNav1.1; 1 nM,−8.1 ± 0.4 mV
same,Voltage-dependence of inactivation V1/2,hNav1.1; 1 nM,−30.7 ± 1.0 mV
same,time constants of fast inactivation of hNav1.1,"hNav1.1; 5 nM and 50 nM, potentials more positive than −5 mV",significantly increases
same,"Time constant of fast inactivation, K",hNav1.1; 5 nM,0.07 ± 0.01
same,"Time constant of fast inactivation, Plateau",hNav1.1; 5 nM,0.47 ± 0.03
same,"Time constant of fast inactivation, Span",hNav1.1; 5 nM,0.9 ± 0.4
same,Voltage-dependence of inactivation Slope,hNav1.1; 5 nM,9.7 ± 0.4
same,Voltage-dependence of activation Slope,hNav1.1; 5 nM,9.4 ± 0.4
same,Voltage-dependence of activation V1/2,hNav1.1; 5 nM,−13.3 ± 0.9 mV
same,Voltage-dependence of inactivation V1/2,hNav1.1; 5 nM,−33.4 ± 1.1 mV
same,"Time constant of fast inactivation, K",hNav1.1; 50 nM,0.09 ± 0.02
same,"Time constant of fast inactivation, Plateau",hNav1.1; 50 nM,0.75 ± 0.1
same,"Time constant of fast inactivation, Span",hNav1.1; 50 nM,0.8 ± 0.1
same,Voltage-dependence of inactivation Slope,hNav1.1; 50 nM,11.9 ± 0.8
same,Voltage-dependence of activation Slope,hNav1.1; 50 nM,11.8 ± 1.3
same,Voltage-dependence of activation V1/2,hNav1.1; 50 nM,−12.3 ± 1.0 mV
same,Voltage-dependence of inactivation V1/2,hNav1.1; 50 nM,−29.6 ± 1.2 mV
same,hNav1.1 channel inactivation,"hNav1.1; 1, 5 or 50 nM",potently inhibits hNav1.1 inactivation in a dose-dependent manner
same,peak current amplitude of hNav1.1,"hNav1.1; 1, 5 or 50 nM",minimal increase
same,hNav1.1 sustained current,"hNav1.1; after 24 ms, 5 nM and especially 50 nM, still substantial at end of 100 ms step",emergence of a sustained current is apparent
same,effect on hNav1.4 current,hNav1.4,no effect
